Values of other authors, collected in article PMC10957332.

Legend:
[1] = target: Histone H3 peptide (H3K4me3) N-terminal tail (Homo sapiens) (UniProt P68431)
[2] = target: Histone H3 peptide (H3K4me0) N-terminal tail (Homo sapiens) (UniProt P68431)
[3] = target: Histone H3 peptide (H3K36me2) (Homo sapiens) (UniProt P68431)

Row | Kd [1] [µM] | Kd [2] [µM] | Kd [3] [µM] | Substance
1 | 35.6 | 0.82 |  | DNMT3A ADD (from UniProt Q9Y6K1)
2 |  |  | 63 | DNMT3A PWWP (from UniProt Q9Y6K1)
